Tested on: pancreatin (Panzytrat 40,000)
Test: Cleavage experiments with pancreatin, acid number recorded over time
Settings: individual esters in pure form, water, 50° C.
Method: Both media are from the company Biorelevant®, Ltd. in Great Britain. In addition, in some experiments porcine pancreas is added (Panzytrat® 40,000, Fa. Allergan).
The pancreatin is used in the form of the commercially available product Panzytrat® 40,000 from the Allergan company. The whole mixture is stirred on a hot plate at 50° C.; the course of the reaction is determined and monitored by continuously recording the acid number over time.

- cleavage by pancreatin: cleaved
Substance: 3-oxobutyric acid tetra-diglycerol ester
